The assay addresses ALX222 (human). The assay can be described thus: SPR; hFcγRs flowed (0-5000 nM) over ALX proteins captured on a GLC chip with immobilised human CD47 ECD; 25°C; PBS pH 7.4, 0.01% Tween-20; equilibrium analysis, for FcγRI also a kinetic Langmuir fit; apparent. The note with it: both partners purified. In general terms: SPR reads the build-up and loss of mass on a sensor chip optically.

B1: human FcγRIIB/C (receptor, UniProt P31994 43-217, looked up)
chain: TPAAPPKAVLKLEPQWINVLQEDSVTLTCRGTHSPESDSIQWFHNGNLIPTHTQPSYRFKANNNDSGEYTCQTGQTSLSDPVHLTVLSEWLVLQTPHLEFQEGETIVLRCHSWKDKPLVKVTFFQNGKSKKFSRSDPNFSIPQANHSHSGDYHCTGNIGYTLYSSKPVTITVQAP
notes: Fc gamma receptor IIB/C as printed, human, recombinant soluble; Printed as FcγRIIB/C; also called hFcγRIIB/C
For B1, the Kd was found to be 2200 nM.

Values taken from PMC6104973, “ALX148 blocks CD47 and enhances innate and adaptive antitumor immunity with a favorable safety profile” (PLoS ONE, 2018).
